Values quoted from earlier work, collected in patent publication US20210393618A1, “BUPRENORPHINE TO TREAT RESPIRATORY DEPRESSION” (published 2021).
Some compounds may have been tested in ways that are not shown here.

Settings: in vivo

In the case of `CCC(=O)N(c1ccccc1)C1CCN(CCc2ccccc2)CC1`, the “unchanged drug excreted in the urine” value is given as “less than 10%”.
